The chains behind the UniProt entries cited, without tags or fusion partners. Residues count along the entry.
UniProt P02768, 25-609: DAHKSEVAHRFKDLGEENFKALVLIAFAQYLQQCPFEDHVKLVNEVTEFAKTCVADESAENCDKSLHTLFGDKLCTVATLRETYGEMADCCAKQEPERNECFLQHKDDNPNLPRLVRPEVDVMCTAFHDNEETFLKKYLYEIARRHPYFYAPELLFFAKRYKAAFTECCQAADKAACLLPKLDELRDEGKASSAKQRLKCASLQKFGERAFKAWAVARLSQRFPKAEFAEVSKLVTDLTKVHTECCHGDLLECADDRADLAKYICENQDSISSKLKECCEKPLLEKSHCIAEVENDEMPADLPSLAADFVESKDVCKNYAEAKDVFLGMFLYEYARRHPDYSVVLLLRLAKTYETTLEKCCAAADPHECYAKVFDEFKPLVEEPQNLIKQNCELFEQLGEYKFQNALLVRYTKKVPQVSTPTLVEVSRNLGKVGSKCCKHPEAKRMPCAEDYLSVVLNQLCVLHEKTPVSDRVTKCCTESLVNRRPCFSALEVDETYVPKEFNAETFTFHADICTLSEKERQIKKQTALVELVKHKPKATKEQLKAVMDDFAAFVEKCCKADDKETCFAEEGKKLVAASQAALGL

According to US20050137807A1, “Method of visualization of the ADME properties of chemical substances” (priority 2003, published 2005):

Target: human serum albumin (Homo sapiens, UniProt P02768)
Assay: binding constant to human serum albumin (TRANSIL technology)
Settings: log binding constant to human serum albumin

SMILES | LogHSA
C[C@]12C[C@H](O)[C@H]3[C@@H](CCC4=CC(=O)CC[C@@]43C)[C@@H]1CC[C@@H]2C(=O)CO [Corticosterone] | −3.886
C[C@@H]1C[C@H]2[C@@H]3CCC4=CC(=O)C=C[C@]4(C)[C@@]3(F)[C@@H](O)C[C@]2(C)[C@@]1(O)C(=O)CO [Dexamethasone] | −3.114

Continued, values first:

LogHSA | SMILES
−3.770 | CC(CCc1ccccc1)NCC(O)c1ccc(O)c(C(N)=O)c1 (centres unmarked) [Labetalol]
−3.694 | C[C@]12C=CC(=O)C=C1CC[C@@H]1[C@@H]2[C@@H](O)C[C@@]2(C)[C@H]1CC[C@]2(O)C(=O)CO [Prednisolone]
−4.000 | COc1cc2nc(N3CCN(C(=O)C4CCCO4)CC3)nc(N)c2cc1OC (centres unmarked) [Terazosin]
